Assay results taken from patent publication US12583820B2, “Broad spectrum antivirals against coronavirus” (priority 2020, dated 2026).

What follows are molecules tested against 3CLpro of SARS-CoV-2 (Severe acute respiratory syndrome coronavirus 2, UniProt P0DTD1) (assay: biochemical).

Row | SMILES | IC50 [nM]
1 | CC(C)C[C@H](NC(=O)OC1CCC(F)(F)CC1)C(=O)N[C@@H](C[C@@H]1CCNC1=O)C(O)S(=O)(=O)[O-].[Na+] (stereo partly drawn) [Compound 7h (Scheme 1), sodium (2S)-2-((S)-2-((((4,4-difluorocyclohexyl)oxy)carbonyl)amino)-4-methylpentan-amido)-1-hydroxy-3-((S)-2-oxopyrrolidin-3-yl)propane-1-sulfonate] | 1600
2 | CC(C)C[C@H](NC(=O)OCC1CCC(F)(F)CC1)C(=O)N[C@@H](C[C@@H]1CCNC1=O)C(O)S(=O)(=O)O (stereo partly drawn) [Compound 7j (Scheme 1), sodium (2S)-2-((S)-2-((((4,4-difluorocyclohexyl)methoxy)carbonyl)amino)-4-methylpentan-amido)-1-hydroxy-3-((S)-2-oxopyrrolidin-3-yl)propane-1-sulfonate] | 1100
3 | CC(C)C[C@H](NC(=O)OCc1ccc(F)cc1)C(=O)N[C@H](C=O)C[C@@H]1CCNC1=O [Compound 19b, 4-Fluorobenzyl ((S)-4-methyl-1-oxo-1-(((S)-1-oxo-3-((S)-2-oxopyrrolidin-3-yl)propan-2-yl)amino)pentan-2-yl)carbamate] | 360
4 | [2H]C([2H])(OC(=O)N[C@@H](CC(C)C)C(=O)N[C@H](C=O)C[C@@H]1CCNC1=O)c1ccc(F)cc1 [Compound 20b, (4-Fluorophenyl)methyl-d2 ((S)-4-methyl-1-oxo-1-(((S)-1-oxo-3-((S)-2-oxopyrrolidin-3-yl)propan-2-yl)amino)pentan-2-yl)carbamate] | 350
5 | [2H]C([2H])(OC(=O)N[C@@H](CC(C)C)C(=O)N[C@@H](C[C@@H]1CCNC1=O)C(O)S(=O)(=O)[O-])c1ccc(F)cc1.[Na+] (stereo partly drawn) [Compound 20c, Sodium (2S)-2-((S)-2-((((4-fluorophenyl)methoxy-d2)carbonyl)amino)-4-methylpentan amido)-1-hydroxy-3-((S)-2-oxopyrrolidin-3-yl)propane-1-sulfonate] | 360
